Patent US11877996B1 (priority 2023, dated 2024)

Legend:
THP-1 cells = test: MTT cytotoxicity assay, THP-1; conditions: read-out: LC50, THP-1, 72 h
HepG2 cells = test: MTT cytotoxicity assay, HepG2; conditions: read-out: LC50, HepG2, 72 h
HEK293 cells = test: MTT cytotoxicity assay, HEK293; conditions: read-out: LC50, HEK293, 72 h
Caco-2 cells = test: MTT cytotoxicity assay, Caco-2; conditions: read-out: LC50, Caco-2, 72 h
[1] = tested on: macrophage-like cells differentiated from THP-1; test: MTT cytotoxicity assay, macrophage differentiated from THP-1; conditions: read-out: LC50, 72 h

Sodium (meta)arsenite
CC50 (THP-1 cells): < 25 µM
CC50 (HepG2 cells): < 25 µM
CC50 (HEK293 cells): < 25 µM
CC50 (Caco-2 cells): < 25 µM
CC50 [1]: 100 µM
